Reference: US20060216235A1, “Cancerous disease modifying antibodies” (priority 2003, published 2006)

Experiments:
PC-3 [1] = test: FACS binding; settings: 20 micrograms/mL
Method: (§1) Cells were prepared for FACS by initially washing the cell monolayer with DPBS (without Ca^++ and Mg^++). Cell dissociation buffer (INVITROGEN) was then used to dislodge the cells from their cell culture plates at 37° C. After centrifugation and collection the cells were resuspended in Dulbecco's phosphate buffered saline containing MgCl2, CaCl2 and 25% fetal bovine serum at 4° C. […] Prior to the addition of Alexa Fluor 488-conjugated secondary antibody the cells were washed once with wash media. The Alexa Fluor 488-conjugated antibody in staining media was then added for 20 minutes. The cells were then washed for the final time and resuspended in staining media containing 1 microgram/mL propidium iodide. Flow cytometric acquisition of the cells was assessed by running samples on a FACScan using the CellQuest software (BD Biosciences). The forward (FSC) and side scatter (SSC) of the cells were set by adjusting the voltage and amplitude gains on the FSC and SSC detectors. […] Live cells were acquired by gating for FSC and propidium iodide exclusion. Table 3 tabulated the mean fluorescence intensity fold increase above isotype control and is presented qualitatively as: less than 5 (−); 5 to 50 (+); 50 to 100 (++); above 100 (+++) and in parenthesis, the percentage of cells stained.

HT-29 [2] = test: FACS binding; settings: 20 micrograms/mL
Method: as §1

OVCAR [3] = test: FACS binding; settings: 20 micrograms/mL
Method: as §1

SW1116 [4] = test: FACS binding; settings: 20 micrograms/mL
Method: as §1

OVCAR [5] = system: OVCAR
PC-3 [6] = system: PC-3
SW1116 [7] = system: SW1116; design: key to the marks not given beside the values
HT-29 [8] = system: HT-29
MB-468 = system: MB-468; design: key to the marks not given beside the values

In the case of “anti-EGFR: positive control antibody C225, IgG1, kappa, 5 microgram/mL, Cedarlane”, the “cytotoxicity, BREAST MB-231” value (MB-231) is reported as “−”, the “cytotoxicity, COLON SW620” value (SW620) is reported as “−” and the “cytotoxicity, NORMAL Hs888 Lu” value (Hs888 Lu) is reported as “−”. For the same substance, the “cytotoxicity, LUNG NCI H460” value (NCI H460) was “−”, the “percentage of cells stained, PC-3” value (PC-3 [1]) was 95% and the “percentage of cells stained, HT-29” value (HT-29 [2]) was 97%. The “percentage of cells stained, OVCAR” value (OVCAR [3]) was 90%, the “percentage of cells stained, SW1116” value (SW1116 [4]) was 43% and the “cytotoxicity, OVARY OVCAR” value (OVCAR [5]) was “+”. The “cytotoxicity, BREAST MCF-7” value (MCF-7) was “+”, the “cytotoxicity, PROSTATE PC-3” value (PC-3 [6]) was “−” and the “cytotoxicity, COLON SW1116” value (SW1116 [7]) was “+++”. The “cytotoxicity, COLON HT-29” value (HT-29 [8]) was “−”, the “cytotoxicity, NORMAL CCD27sk” value (CCD 27sk) was “+” and the “cytotoxicity, BREAST MB-468” value (MB-468) was “+++”.
